Source: US20260217660A1, “INHIBITORS OF ACTIVIN RECEPTOR TYPE I (ACVRI) AND ACTIVIN RECEPTOR LIKE TYPE I (ACVRLI), AND METHODS USING SAME” (Baylor College of Medicine, priority 2023, published 2026)

The chains behind the UniProt entries cited, without tags or fusion partners. Residues count along the entry.
UniProt P37023, 22-503: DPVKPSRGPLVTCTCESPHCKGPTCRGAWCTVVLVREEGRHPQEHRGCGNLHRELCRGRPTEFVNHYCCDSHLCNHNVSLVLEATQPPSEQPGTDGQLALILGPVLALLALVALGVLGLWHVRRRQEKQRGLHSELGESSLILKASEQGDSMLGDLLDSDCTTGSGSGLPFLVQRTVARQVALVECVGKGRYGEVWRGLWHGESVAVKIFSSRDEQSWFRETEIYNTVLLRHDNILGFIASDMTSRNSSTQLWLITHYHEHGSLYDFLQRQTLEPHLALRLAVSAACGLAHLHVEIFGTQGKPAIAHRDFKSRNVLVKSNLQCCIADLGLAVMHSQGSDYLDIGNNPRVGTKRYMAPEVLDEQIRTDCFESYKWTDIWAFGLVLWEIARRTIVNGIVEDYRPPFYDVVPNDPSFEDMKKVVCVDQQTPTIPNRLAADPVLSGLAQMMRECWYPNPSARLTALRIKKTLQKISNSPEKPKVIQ

Experiments:
ACVR1 = biological target: T1, ACVR1 (Homo sapiens, UniProt Q04771); assay: ThermoFisher (Lantha) kinase assay, inhibition of ACVR1; format: biochemical; details: in vitro
T1 construct: purchased ThermoFisher
T1 sequence (Q04771 21-509): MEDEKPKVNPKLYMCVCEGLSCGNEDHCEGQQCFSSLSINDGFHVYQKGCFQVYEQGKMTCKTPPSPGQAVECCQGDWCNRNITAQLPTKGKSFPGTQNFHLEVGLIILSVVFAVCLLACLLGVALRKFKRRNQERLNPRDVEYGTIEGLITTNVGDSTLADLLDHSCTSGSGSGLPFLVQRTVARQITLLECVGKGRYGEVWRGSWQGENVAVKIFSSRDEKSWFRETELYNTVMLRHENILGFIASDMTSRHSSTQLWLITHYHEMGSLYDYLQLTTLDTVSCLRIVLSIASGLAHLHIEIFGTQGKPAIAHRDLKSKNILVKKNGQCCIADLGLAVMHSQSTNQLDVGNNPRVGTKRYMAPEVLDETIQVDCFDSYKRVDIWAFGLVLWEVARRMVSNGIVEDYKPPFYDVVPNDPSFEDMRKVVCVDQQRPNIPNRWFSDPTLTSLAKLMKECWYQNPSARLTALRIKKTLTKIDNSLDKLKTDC

ACVRL1 = ACVRL1 (Homo sapiens, UniProt P37023); assay: ThermoFisher (Lantha) kinase assay, inhibition of ACVRL1; format: biochemical; parameters: purchased ThermoFisher; details: in vitro, NA = not active at 1 μM

Structure (SMILES)	IC50 (ACVR1) [nM]	IC50 (ACVRL1) [nM]
CNC(=O)[C@H]1C[C@H](n2c(-c3cc(OC)ccc3OC)nc3ccc(C(=O)NCCCN4CCN(c5cccc(C)c5C)CC4)cc32)C1 [CDD-2420, 2-(2,5-dimethoxyphenyl)-N-(3-(4-(2,3-dimethylphenyl)piperazin-1-yl)propyl)-1-((1r,3r)-3-(methylcarbamoyl)cyclobutyl)-1H-benzo[d]imidazole-6-carboxamide]	4.9	24.1
CNC(=O)[C@H]1C[C@H](n2c(-c3cc(OC)c(OC)c(OC)c3)nc3ccc(C(=O)NCCCN4CCN(c5ccccc5)CC4)cc32)C1 [CDD-2235, 1-((1r,3r)-3-(methylcarbamoyl)cyclobutyl)-N-(3-(4-phenylpiperazin-1-yl)propyl)-2-(3,4,5-trimethoxyphenyl)-1H-benzo[d]imidazole-6-carboxamide]	5.1	17.5
CN(C)CCCNC(=O)c1ccc2nc(-c3cc(F)cc(F)c3)n(C3CCC3)c2c1 [CDD-2618, 1-cyclobutyl-2-(3,5-difluorophenyl)-N-(3-(dimethylamino)propyl)-1H-benzo[d]imidazole-6-carboxamide]	725	2140
COc1cc(-c2nc3ccc(C(=O)NCCC(=O)N4CCN(c5cccc(C)c5C)CC4)cc3n2C2CCC2)cc(OC)c1OC [CDD-2467, 1-cyclobutyl-N-(3-(4-(2,3-dimethylphenyl)piperazin-1-yl)-3-oxopropyl)-2-(3,4,5-trimethoxyphenyl)-1H-benzo[d]imidazole-6-carboxamide]	13	117
COc1cc(-c2nc3ccc(C(=O)NCCC(=O)O)cc3n2C2CCC2)cc(OC)c1OC [CDD-2464, 3-(1-cyclobutyl-2-(3,4,5-trimethoxyphenyl)-1H-benzo[d]imidazole-6-carboxamido)propanoic acid]	202	131
CNC(=O)[C@H]1C[C@H](n2c(-c3cc(OC)c(OC)c(OC)c3)nc3ccc(C(=O)N4CCN(c5ccccc5)CC4)cc32)C1 [CDD-2279, (1r,3r)-N-methyl-3-(6-(4-phenylpiperazine-1-carbonyl)-2-(3,4,5-trimethoxyphenyl)-1H-benzo[d]imidazol-1-yl)cyclobutane-1-carboxamide]	1990	1270
CNC(=O)[C@H]1C[C@H](n2c(-c3cc(OC)cc(OC)c3)nc3ccc(C(=O)NCCCN4CCN(c5ccccc5)CC4)cc32)C1 [CDD-2314, 2-(3,5-dimethoxyphenyl)-1-((1r,3r)-3-(methylcarbamoyl)cyclobutyl)-N-(3-(4-phenylpiperazin-1-yl)propyl)-1H-benzo[d]imidazole-6-carboxamide]	7.3	32.5
CNC(=O)c1ccc2nc(-c3cc(OC)c(OC)c(OC)c3)n([C@H]3CC[C@H](C(=O)NC)C3)c2c1 [CDD-2234, N-methyl-1-((1S,3S)-3-(methylcarbamoyl)cyclopentyl)-2-(3,4,5-trimethoxyphenyl)-1H-benzo[d]imidazole-6-carboxamide]	79.7	70.3
COc1cc(-c2nc3ccc(C(=O)NCCCO)cc3n2C2CCC2)cc(OC)c1OC [CDD-2465, 1-cyclobutyl-N-(3-hydroxypropyl)-2-(3,4,5-trimethoxyphenyl)-1H-benzo[d]imidazole-6-carboxamide]	44	42
CNC(=O)CCCn1c(-c2cc(OC)c(OC)c(OC)c2)nc2ccc(C(=O)NCCCN3CCN(c4ccccc4)CC3)cc21 [CDD-2316, 1-(4-(methylamino)-4-oxobutyl)-N-(3-(4-phenylpiperazin-1-yl)propyl)-2-(3,4,5-trimethoxyphenyl)-1H-benzo[d]imidazole-6-carboxamide]	129	807
CNC(=O)[C@H]1C[C@H](n2c(-c3ccccc3)nc3ccc(C(=O)NCCCN4CCN(c5ccccc5)CC4)cc32)C1 [CDD-2317, 1-((1r,3r)-3-(methylcarbamoyl)cyclobutyl)-2-phenyl-N-(3-(4-phenylpiperazin-1-yl)propyl)-1H-benzo[d]imidazole-6-carboxamide]	143	2060
CNC(=O)[C@H]1C[C@H](n2c(-c3ccc(C(N)=O)cc3)nc3ccc(C(=O)NCCCN4CCN(c5ccccc5)CC4)cc32)C1 [CDD-2339, 2-(4-carbamoylphenyl)-1-((1r,3r)-3-(methylcarbamoyl)cyclobutyl)-N-(3-(4-phenylpiperazin-1-yl)propyl)-1H-benzo[d]imidazole-6-carboxamide]	83	839

The remaining lines, values ahead:

IC50 (ACVR1) [nM]	IC50 (ACVRL1) [nM]	Structure (SMILES)
24.8	13.2	COc1cc(-c2nc3ccc(C(=O)NC4CC(N5CCN(c6ccccc6)CC5)C4)cc3n2C2CCC2)cc(OC)c1OC (centres unmarked) [CDD-2788, 1-cyclobutyl-N-(3-(4-phenylpiperazin-1-yl)cyclobutyl)-2-(3,4,5-trimethoxyphenyl)-1H-benzo[d]imidazole-6-carboxamide]
480	1360	CN(C)CCCNC(=O)c1ccc2nc(-c3ccncc3)n(C3CCC3)c2c1 [CDD-2619, 1-cyclobutyl-N-(3-(dimethylamino)propyl)-2-(pyridin-4-yl)-1H-benzo[d]imidazole-6-carboxamide]
1850	–	CN(C)CCCNC(=O)c1ccc2nc(-c3cncc4ccccc34)n(C3CCC3)c2c1 [CDD-2623, 1-cyclobutyl-N-(3-(dimethylamino)propyl)-2-(isoquinolin-4-yl)-1H-benzo[d]imidazole-6-carboxamide]
232	719	CN(C)CCCNC(=O)c1ccc2nc(-c3ccnc4ccccc34)n(C3CCC3)c2c1 [CDD-2624, 1-cyclobutyl-N-(3-(dimethylamino)propyl)-2-(quinolin-4-yl)-1H-benzo[d]imidazole-6-carboxamide]
3810	–	CN(C)CCCNC(=O)c1ccc2nc(-c3cccc(-c4ccccc4)c3)n(C3CCC3)c2c1 [CDD-2621, 2-([1,1′-biphenyl]-3-yl)-1-cyclobutyl-N-(3-(dimethylamino)propyl)-1H-benzo[d]imidazole-6-carboxamide]
22.5	18.6	COc1cc(-c2nc3ccc(C(=O)NCCN4CCN(c5ccccc5)CC4)cc3n2C2CCC2)cc(OC)c1OC [CDD-2786, 1-cyclobutyl-N-(2-(4-phenylpiperazin-1-yl)ethyl)-2-(3,4,5-trimethoxyphenyl)-1H-benzo[d]imidazole-6-carboxamide]
16.3	19.8	CN(C)CCCNC(=O)c1ccc2nc(-c3c[nH]c4ncccc34)n(C3CCC3)c2c1 [CDD-2625, 1-cyclobutyl-N-(3-(dimethylamino)propyl)-2-(1H-pyrrolo[2,3-b]pyridin-3-yl)-1H-benzo[d]imidazole-6-carboxamide]
6.4	–	COc1cc(-c2nc3ccc(C(=O)NCCCN(C)C)cc3n2C2CCC2)cc(OC)c1OC [CDD-2789, 1-cyclobutyl-N-(3-(dimethylamino)propyl)-2-(3,4,5-trimethoxyphenyl)-1H-benzo[d]imidazole-6-carboxamide]
1860	–	COc1ccc(-c2cccc(-c3nc4ccc(C(=O)NCCCN(C)C)cc4n3C3CCC3)n2)cc1 [CDD-2620, 1-cyclobutyl-N-(3-(dimethylamino)propyl)-2-(6-(4-methoxyphenyl)pyridin-2-yl)-1H-benzo[d]imidazole-6-carboxamide]
